# How the values were obtained:
# [1] = Solubility of adducts in water, ammonium hydroxide water, isopropanol and toluene; settings: for Solubility in Ammonium Hydroxide Water (28-30% NH4OH) / Solubility in Isopropanol / Solubility in Toluene: 10% by weight of adduct; for Solubility in Water: minimal undefined concentration
# [2] = Solubility of aluminum phthalocyanine chloride (AlPc-Cl) in adduct/solvent; settings: 0.1% adduct by weight; minimum AlPc-Cl concentration tested in brackets (0.10% weight)
# [3] = Solubility statements in running text
Compound,Solubility in Ammonium Hydroxide Water (28-30% NH4OH) [1],Solubility in Isopropanol [1],Solubility in Toluene [1],Solubility in Water [1],Solubility of AlPc-Cl in adduct/Isopropanol [2],Solubility in Water [3]
O=C(O)c1c(Br)c(Br)c(Br)c(Br)c1C(=O)NCCOCCOCCNC(=O)c1c(Br)c(Br)c(Br)c(Br)c1C(=O)O,No,No,No,No,,
CC(O)CN(CC(C)O)C(=O)c1c(Br)c(Br)c(Br)c(Br)c1C(=O)O (stereo not drawn),Yes,Yes,No,Yes,No [0.10%],
O=C(O)c1c(Br)c(Br)c(Br)c(Br)c1C(=O)NCCNCCO,No,No,No,No,,
zinc phthalocyanine tetrasulfonate,,,,,,highly soluble
CC(O)CNC(=O)c1c(Br)c(Br)c(Br)c(Br)c1C(=O)O (stereo not drawn),"No, oily","No, oily","No, oily","No, oily",,

# Reference: US8679990B2, “Self-decontaminating coatings and fabrics” (dated 2014)
